This is an account of results in paper PMC3407951 (EMBO Molecular Medicine, 2012).

One series deals with trypsin. The note with it: 37°C, up to 24h.
A further series relates to ADAM10. Put plainly: 0.4 µg. The conditions noted are these: human, 37°C, up to 24 h.

“Also recorded” adds a separate entry of the source.

Turning to EVHHQKLVFFAEDVGSNK, the fragment found result in the series on trypsin is listed as “Aβ11–16, 3 h; also recorded: Aβ17– 28, 3 h”; in the series on ADAM10, “Aβ11–16, 3 h; also recorded: Aβ17–28, 3 h”.
